Experimental data from patent publication US5861405A, “S-substituted 1,3,7-trialkyl-xanthine derivatives” (priority 1994, dated 1999).
Read-outs that look alike come from different tables or passages of the source. One block for each compound: values may come before it.

The chains behind the UniProt entries cited, without tags or fusion partners.
UniProt P30543, whole entry: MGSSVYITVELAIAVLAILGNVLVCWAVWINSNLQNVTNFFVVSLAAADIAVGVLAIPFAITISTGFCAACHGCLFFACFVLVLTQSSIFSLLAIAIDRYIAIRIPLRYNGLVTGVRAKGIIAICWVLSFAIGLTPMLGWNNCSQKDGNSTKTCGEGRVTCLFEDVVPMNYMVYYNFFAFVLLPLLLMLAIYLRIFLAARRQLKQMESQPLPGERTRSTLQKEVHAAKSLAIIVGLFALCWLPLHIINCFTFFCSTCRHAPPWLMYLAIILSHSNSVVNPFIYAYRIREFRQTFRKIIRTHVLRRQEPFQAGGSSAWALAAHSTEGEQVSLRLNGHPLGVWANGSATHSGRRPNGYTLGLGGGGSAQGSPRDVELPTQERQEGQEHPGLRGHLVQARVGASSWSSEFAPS
UniProt P25099, whole entry: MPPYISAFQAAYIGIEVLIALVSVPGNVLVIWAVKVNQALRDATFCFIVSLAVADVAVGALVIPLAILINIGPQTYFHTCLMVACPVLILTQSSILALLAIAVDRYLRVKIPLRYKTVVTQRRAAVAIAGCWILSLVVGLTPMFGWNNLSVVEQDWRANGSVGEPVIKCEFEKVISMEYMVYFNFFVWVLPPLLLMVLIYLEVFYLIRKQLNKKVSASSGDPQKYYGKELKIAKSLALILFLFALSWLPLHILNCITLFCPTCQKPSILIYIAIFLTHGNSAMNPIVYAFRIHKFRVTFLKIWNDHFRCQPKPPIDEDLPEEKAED

How the values were obtained:
[1] = molecular target: T1, rat striatal A2a receptors (Rattus norvegicus, UniProt P30543); test: Radioligand binding, [3H]CGS 21680, rat striatal A2a receptors; conditions: Table I; for Ki: Ki (A2a), vs [3H]CGS21680 (5 nM), rat striatal A2 receptors
[2] = molecular target: A2a receptors, rat striatum (Rattus norvegicus, UniProt P30543)
[3] = tested on: A2a receptors, bovine striatum
[4] = tested on: A2a receptors, rabbit striatum
[5] = molecular target: T1, rat striatal A2a receptors
[6] = molecular target: T2, rat A1 cortical receptors (Rattus norvegicus, UniProt P25099); test: Radioligand binding, [3H]N6-phenylisopropyladenosine ([3H]PIA), rat cortical A1 receptors
T2 construct: Rat cerebral cortical membranes and striatal membranes were prepared; from tissue; host or cells: rat cerebral cortex membranes

A2 receptors = conditions: background; cited from earlier work

Compound: Cn1c(=O)c2c(nc(/C=C/c3cccc(N=C=S)c3)n2C)n(C)c1=O [Compound 28e, 1,3,7-trimethyl-8-(3-isothiocyanatostyryl)xanthine]
- selectivity ratio A2a versus A1 based on IC50 [2]: 290 fold
- selectivity ratio A2a versus A1 based on Ki [2]: 180 fold
- A1/A2 ratio ([2]; IC50): 291
- selectivity ratio based on Ki ([2]; Table V footnote c): 182
- A2a-selectivity [3]: 120 fold
- A1/A2 ratio ([3]; IC50): 122
- A2a-selectivity [4]: 180 fold
- A1/A2 ratio ([4]; IC50): 183
- irreversible IC50 relative to competitive IC50 [5]: 18 times
- A1/A2a ratio ([1]; ratio of Ki values): 180

Compound: CCn1c(=O)c2c(nc(/C=C/c3cc(OC)c(OC)c(OC)c3)n2C)n(CC)c1=O [Compound 45b]
- Ki [1]: 0.081 ± 0.017 µM

Compound: Nc1nc2ccc(Cl)cc2c2nc(-c3ccco3)nn12 [CGS 15943]
- A2 selectivity, in words (A2 receptors): A2 -selective but also by only one order of magnitude

Results, then the compound that gave them:

- Ki [1]: 0.0613 ± 0.0176 µM
Compound: CCCn1c(=O)c2c(nc(/C=C/c3cccc(Cl)c3)n2C)n(CCC)c1=O [Compound 51b]

- Ki ([6]; Table I, vs [3H]PIA (1 nM), rat A1 receptors, read-out: Ki (A1)): 0.055 ± 0.028 µM
- Ki ([6]; read-out: A1 affinity in rat): 0.055 µM
Compound: CCCn1c(=O)c2[nH]c(/C=C/c3ccccc3)nc2n(CCC)c1=O [Compound 47]
